Here are results for two compounds from PubChem BioAssay AID504832 (National Center for Advancing Translational Sciences (NCATS), 2011).

The list shows a part of the results, in another mix than the full data. Some tests of the compounds listed are not included; inactive here does not mean inactive elsewhere. Inconclusive results are not listed. Activity calls are given as the source filed them. Calls come from the whole dose curve; as a rule, active = well fitted inhibition curve with a large enough effect; inconclusive = small, poorly fitted or top-dose-only effect, or another doubt; inactive = no such curve, though single readings can be large or run the other way.
% is set by controls: 0 for no effect and ±100 for the full control effect.

This assay in a line: Primary qHTS for delayed death inhibitors of the malarial parasite plastid, 48 hour incubation. Particulars: P. falciparum luciferase growth in erythrocytes; at 28.7 µM (top of the series). The source says:
The goal of this screen is to discover new antimalarial compounds that act by inhibiting the development of the apicoplast in the malarial parasite Plasmodium falciparum. The biochemical processes that make this organelle essential for erythrocytic stage parasites are not well understood. However, antibiotics such as azithromycin and tetracycline, which target the apicoplast translational machinery, have a potent antimalarial effect.
We have developed a cell-based assay that measures parasite growth based on the expression of an integrated copy of a firefly luciferase reporter. To detect small molecules that cause this "delayed death" phenotype, erythrocytes infected with the luciferase-expressing parasites were incubated with compounds for either one or two generations, corresponding to 48 and 96 hours, respectively. […] Growth inhibition is detected by a decrease in luciferase activity. […]
Four microliters of culture medium (RPMI 1640 with 0.5% w/v Albumax (GIBCO), 24 mM sodium bicarbonate and 10 ug/mL gentamycin) were dispensed by a Multi-drop Combi into white solid 1536-well plates (Grenier) and 23 nL compound was added by a pin tool. […] Two microliters of luciferase detection reagent was added and luminescence was detected by a ViewLux (PerkinElmer) reader.
Consider `CC(C)N1C(=O)CC2(CCN(CCOC(=O)C(O)(c3ccccc3)c3ccccc3)CC2)C1=O`, for which the activity change, negative = inhibition is inactive: 59.2%.
Consider `C=CCN1CCN(CCOC(=O)C(O)(c2ccccc2)c2ccccc2)CC1`, for which the activity change, negative = inhibition is inactive: 17.2%.
